# In patent US6965013B2, “Intermedin and its uses” (The Board of Trustees of the Leland Stanford Junior …, priority 2002, dated 2005):
# Chains of the proteins cited; added tags and fusions are not shown. Residues count along the entry.
# UniProt Q63118, 24-464: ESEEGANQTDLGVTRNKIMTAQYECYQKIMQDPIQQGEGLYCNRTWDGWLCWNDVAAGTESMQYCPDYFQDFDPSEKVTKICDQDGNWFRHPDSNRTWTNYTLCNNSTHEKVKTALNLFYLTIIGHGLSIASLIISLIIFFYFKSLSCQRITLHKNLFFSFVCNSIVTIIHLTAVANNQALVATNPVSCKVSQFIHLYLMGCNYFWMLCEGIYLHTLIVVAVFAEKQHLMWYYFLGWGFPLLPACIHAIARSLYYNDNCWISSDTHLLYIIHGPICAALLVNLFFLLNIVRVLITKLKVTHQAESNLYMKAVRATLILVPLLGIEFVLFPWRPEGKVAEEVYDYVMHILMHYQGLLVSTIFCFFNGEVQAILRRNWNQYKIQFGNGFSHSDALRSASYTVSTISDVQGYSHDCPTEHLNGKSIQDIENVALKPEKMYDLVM
# UniProt Q9JJ74, 27-148 partner: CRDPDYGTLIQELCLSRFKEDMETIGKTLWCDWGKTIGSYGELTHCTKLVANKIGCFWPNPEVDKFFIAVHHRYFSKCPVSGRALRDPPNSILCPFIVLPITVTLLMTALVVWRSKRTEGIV
# Target: T1, L6 skeletal myoblast cells expressing endogenous CRLR (CGRP receptor) (Rattus norvegicus, UniProt Q63118+Q9JJ74)
# T1 construct: expressing endogenous CRLR; host or cells: L6 rat skeletal myoblast cells
# Assay: Stimulation of cAMP production in L6 cells
# Format: cell-based
# Conditions: cotreatment with intermedin, IMD17-47 at 1 μM, FIGS. 2C, 2D
# Procedure: Stimulation of cAMP production in SK-N-MC and L6 cells by intermedin and related peptides. Human neuroblastoma SK-N-MC and rat L6 skeletal myoblast cells expressing endogenous CRLR were obtained from American Type Culture Collection. To estimate adenylyl cyclase activation, SK-N-MC and L6 cells (2×10^5 viable cells/well) were plated in 24-well culture dishes in DMEM/F12 medium one day before treatment. Following 2 h incubation in serum-free DMEM/F12 medium, cells were treated with testing reagents for 30 min in medium containing 0.1% BSA and 2.5 mM 3-isobutyl-1-methylxanthine (IBMX, Sigma-Aldrich Corp.) to prevent hydrolysis of cAMP by phosphodiesterases. Following treatment, cells were lysed and cAMP content determined by a specific radioimmunoassay.
substance,measurement,value
"CGRP8-37: N-terminally truncated CGRP, a CGRP receptor antagonist [reference compound]",blockage of the stimulatory effect of intermedin on cAMP production,suppressed
